Target: Muscarinic acetylcholine receptor M1 (Rattus norvegicus, UniProt P08482)

Chains of the proteins cited; added tags and fusions are not shown. Lines headed by an entry give the natural chain unless they say otherwise; changes in a name come on top.
UniProt P08482: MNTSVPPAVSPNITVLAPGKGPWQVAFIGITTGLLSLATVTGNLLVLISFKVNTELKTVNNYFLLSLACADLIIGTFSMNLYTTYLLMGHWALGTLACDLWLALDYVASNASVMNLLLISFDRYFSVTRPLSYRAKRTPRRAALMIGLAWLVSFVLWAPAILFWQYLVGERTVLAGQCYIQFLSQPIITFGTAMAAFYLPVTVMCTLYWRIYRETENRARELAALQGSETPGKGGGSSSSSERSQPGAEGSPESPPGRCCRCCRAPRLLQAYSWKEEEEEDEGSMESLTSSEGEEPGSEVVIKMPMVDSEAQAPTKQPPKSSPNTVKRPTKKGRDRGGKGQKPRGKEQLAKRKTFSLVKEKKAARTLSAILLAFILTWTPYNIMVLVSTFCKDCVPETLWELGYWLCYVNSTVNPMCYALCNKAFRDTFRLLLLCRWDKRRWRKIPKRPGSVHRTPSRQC

## COc1ccccc1CNCCCCCCNCCCCCCCCNCCCCCCNCc1ccccc1OC [METHOCTRAMINE]
  Ki: 79.4 nM

Reference: BindingDB's records for doi:10.1146/annurev.pa.30.040190.003221 (National Institute For Medical Research, 1990)
